# Binding of CDR-mutated scFvs to a peptide of the spike HR2 region

The measurements come from Engelhart et al. 2022 (doi:10.1038/s41597-022-01779-4) through the FLAb antibody collection.

Antigen: PDVDLGDISGINAS, a 14-residue peptide of the SARS-CoV-2 spike HR2 region.

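The starting antibody came from a phage panning campaign against this peptide. Library AAYL50 holds single substitutions and randomly drawn double and triple substitutions in the CDRs. The assay is AlphaSeq: two haploid yeast populations carry antibody and antigen on their surface. After mating in shaken culture at 30 °C for 16 h, diploids were selected and their barcode pairs sequenced. Each replicate has its own calibration line, from reference interactions of the BCL2 family. Mating was done three times.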

Each scFv is VH, a (GGGGS)3 linker, VL, as in the parent Ab-14, and differs from it in the CDRs of the light chain only.
VH: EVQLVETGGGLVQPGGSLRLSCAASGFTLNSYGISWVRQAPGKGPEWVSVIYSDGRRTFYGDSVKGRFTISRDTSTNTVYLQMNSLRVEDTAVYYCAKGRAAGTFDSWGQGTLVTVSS
VL: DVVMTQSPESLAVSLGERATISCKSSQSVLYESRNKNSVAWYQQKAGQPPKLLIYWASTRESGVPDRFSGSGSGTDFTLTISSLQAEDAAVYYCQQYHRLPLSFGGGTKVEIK

Substitutions are numbered in sequence along the VL above, starting at 1 (not Kabat).
Affinities are written as log10 Kd with Kd in nM; a lower number is a better binder.
"nd" marks a missing value. The strain was present, yet no cells mated with the target were sequenced in that replicate, which points to weak or no binding.

changes,"replicates, log10 nM",control signals
N35K N37D S62G,2.25 2.27 2.65,1 of 9 (4.30)
K24V S25Y,1.85 1.54 0.94,0 of 9
V29M S38C L102E,nd nd nd,1 of 9 (4.12)
K24F V29A R60F,nd 2.83 nd,0 of 9
E32A E61M L100D,0.81 0.80 0.84,0 of 9
V29M Q95E S103G,2.30 2.07 nd,0 of 9
S28Q Y31W P101Y,2.11 2.00 2.01,0 of 9
K24W S38W H98E,nd 3.86 nd,1 of 9 (2.91)
L30N R60M L102S,nd 3.56 nd,1 of 9 (3.07)
A40F A57V T59F,nd nd 3.41,0 of 9
Q27E S33T W56N,0.06 0.36 0.20,2 of 9 (4.61)
R34H N37G R60M,nd nd nd,2 of 9 (3.32)
Q27Y E32I Q96A,nd nd nd,1 of 9 (3.70)
S25L W56R Y97G,0.42 0.69 0.50,5 of 9 (4.37)
V29Y S33H K36H,1.99 2.38 2.64,0 of 9
E61V Q95S Q96I,nd nd nd,0 of 9
S38T A57Q R60K,nd nd nd,2 of 9 (4.53)
S28A V29P E32R,2.10 2.83 3.14,0 of 9
Q27T L30S N37V,1.50 1.74 2.63,3 of 9 (4.40)
Q27R K36A E61R,2.07 2.67 2.78,0 of 9
S33H W56N Y97H,nd 4.37 nd,3 of 9 (4.77)
Q27F V39Y Q96P,nd 2.95 nd,1 of 9 (3.65)
Q27W W56A T59S,0.01 0.31 0.09,3 of 9 (4.97)
S28K K36M S58I,nd nd 2.58,1 of 9 (3.11)
K24D S58H,2.32 2.39 2.90,3 of 9 (3.12)
S25P L30I K36E,2.33 2.23 2.72,2 of 9 (3.91)
S25K S26I R60P,nd nd 3.88,0 of 9
S25Y V39H S103I,nd nd nd,0 of 9
K24L E61Q Q96E,2.06 1.84 1.98,0 of 9
L30G E61P Q96R,3.23 2.71 3.99,4 of 9 (4.02)
S26N V29E S33Q,2.83 2.02 2.02,3 of 9 (3.47)
S28W L30R S62F,3.29 nd nd,2 of 9 (3.01)
S25R Q27V Q95S,4.19 nd 3.50,6 of 9 (4.44)
S28P N37F H98F,0.88 1.14 0.95,0 of 9
V39Q S58T E61D,nd 3.08 3.77,0 of 9
S38Q R99Y,2.36 3.22 2.71,1 of 9 (3.23)
K36A H98L L100W,1.53 1.39 1.48,0 of 9
V39F S58V S103F,nd nd nd,0 of 9

5 of these entries, quoted again:

changes	replicates, log10 nM	control signals
S25L W56R Y97G	0.42 0.69 0.50	5 of 9 (4.37)
S38Q R99Y	2.36 3.22 2.71	1 of 9 (3.23)
K24V S25Y	1.85 1.54 0.94	0 of 9
Q27T L30S N37V	1.50 1.74 2.63	3 of 9 (4.40)
S38T A57Q R60K	nd nd nd	2 of 9 (4.53)

Background: pairings of library AAYL50 with three empty control strains gave a value in 18% of cases (median 4.19, 5th percentile 2.99). Values in that range, when seen in few replicates, are hard to tell from nonspecific mating. Also given: how often the same scFv was detected with the empty control strains, with their mean in brackets.
For reference, the parent read 0.65 as the reference entry and 1.68 as a member of this library.